Target: recombinant extracellular part of PSMA (Homo sapiens, UniProt Q04609)
Assay: Competition ELISA: iBody 1 binding to PSMA versus PSMA inhibitors
Conditions: iBody 1 (5 nM per legend); inhibitor pre-incubated 30 min, then iBody 60 min at RT; representative of >3 experiments, n = 3

Amino acid sequences for entries named in this document (tags omitted). Residues count along the entry.
UniProt Q04609, 44-750 limits assumed: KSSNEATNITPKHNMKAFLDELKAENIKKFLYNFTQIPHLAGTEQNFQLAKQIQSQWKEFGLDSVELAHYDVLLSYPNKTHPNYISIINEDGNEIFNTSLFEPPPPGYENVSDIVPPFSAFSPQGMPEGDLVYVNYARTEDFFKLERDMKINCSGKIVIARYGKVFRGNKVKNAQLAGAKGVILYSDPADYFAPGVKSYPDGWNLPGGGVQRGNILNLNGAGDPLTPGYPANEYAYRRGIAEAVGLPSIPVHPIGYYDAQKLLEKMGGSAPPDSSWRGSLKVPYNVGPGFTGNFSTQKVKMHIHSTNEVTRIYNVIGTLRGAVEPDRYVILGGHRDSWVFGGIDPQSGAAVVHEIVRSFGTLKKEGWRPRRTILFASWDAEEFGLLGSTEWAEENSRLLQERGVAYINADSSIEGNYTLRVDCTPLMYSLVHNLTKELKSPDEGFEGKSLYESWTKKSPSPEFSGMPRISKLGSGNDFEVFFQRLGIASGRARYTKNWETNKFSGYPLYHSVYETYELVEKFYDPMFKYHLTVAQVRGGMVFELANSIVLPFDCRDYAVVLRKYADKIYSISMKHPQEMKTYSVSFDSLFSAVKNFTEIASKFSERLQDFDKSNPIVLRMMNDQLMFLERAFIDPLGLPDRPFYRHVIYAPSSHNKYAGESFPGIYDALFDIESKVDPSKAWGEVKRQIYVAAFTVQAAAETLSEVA

In the case of `NCCOCCOCCOCCOCCOCCC(=O)N(CCCCC(NC(=O)NC(CCC(=O)O)C(=O)O)C(=O)O)Cc1ccc(Br)cc1` (stereo not shown), the “competition with binding of iBody 1 to PSMA on ELISA (in words)” value is reported as “outcompeted”.

— paper PMC8600089, “The development of a high-affinity conformation-sensitive antibody mimetic using a biocompatible copolymer carrier (iBody)” (The Journal of Biological Chemistry, 2021)
